Measured values as given in US12351653B1, “Pharmaceutical compositions comprising novel cyclic peptides” (LISATA THERAPEUTICS, INC., priority 2019, dated 2025).

Columns and labels:
[1] = Stability in phosphate-buffered saline, pH=7.4; format: physicochemical; details: pH = 7.4, 37° C.
Method: (§1) For the stability studies in phosphate-buffered saline (PBS), pH=7.4, the 10×PBS stock was diluted to normal 1×PBS concentration and CEND-1 or iRGD was dissolved to a final concentration of ˜1 mg/mL. For the stability studies in pooled human plasma, the frozen pooled human plasma was first thawed, mixed and then clarified by centrifugation. CEND-1 or iRGD was dissolved at a final concentration of ˜2.5 mg/mL in clarified pooled human plasma. For the stability studies with carboxypeptidase Y (CY) a 50 mM sodium phosphate buffer at pH=6.5 containing 0.15 M sodium chloride, 6 Units/mL of carboxypeptidase and ˜0.1 mg/mL CEND-1 or iRGD was prepared. For the stability studies with carboxypeptidase B (CB) a 25 mM Tris·HCl buffer at pH=7.7 containing 0.10 M sodium chloride, 14 Units/mL of carboxypeptidase B and 0.1 mg/mL CEND-1 or iRGD was prepared. For the stability studies with aminopeptidase (AP) a 20 mM Tris·HCl buffer at pH=8 containing 10 Units/mL of carboxypeptidase B and ˜0.1 mg/mL CEND-1 or iRGD was prepared.
(§2) The solutions were incubated at 25° C. and 37° C. and samples were pulled at appropriate time intervals for analysis. Samples in PBS, samples with carboxypeptidase Y and B and aminopeptidase were directly used for HPLC analysis without prior dilution. […]

[2] = Stability in pooled human plasma; format: in vitro ADME; details: 37° C.
Method: as §1, §2

carboxypeptidase Y = target: T1, carboxypeptidase Y (Saccharomyces cerevisiae, UniProt P00729); assay: Stability in presence of carboxypeptidase Y; format: in vitro ADME; details: 25° C., 50 mM sodium phosphate buffer pH=6.5, 6 Units/mL enzyme
T1 construct: purchased
T1 sequence (P00729 112-532): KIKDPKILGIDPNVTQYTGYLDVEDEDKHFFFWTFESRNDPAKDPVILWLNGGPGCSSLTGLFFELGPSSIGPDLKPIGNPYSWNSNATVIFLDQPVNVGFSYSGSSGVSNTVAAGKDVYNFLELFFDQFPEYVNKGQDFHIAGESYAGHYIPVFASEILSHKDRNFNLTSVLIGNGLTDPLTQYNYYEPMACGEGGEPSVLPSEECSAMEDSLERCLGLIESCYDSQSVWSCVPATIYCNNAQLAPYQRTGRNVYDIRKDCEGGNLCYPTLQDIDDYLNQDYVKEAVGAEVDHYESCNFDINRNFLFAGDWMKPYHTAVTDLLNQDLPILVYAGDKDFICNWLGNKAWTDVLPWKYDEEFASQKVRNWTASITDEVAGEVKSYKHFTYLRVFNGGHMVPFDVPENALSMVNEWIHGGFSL
Method: as §1, §2

carboxypeptidase B = assay: Stability in presence of carboxypeptidase B; format: in vitro ADME; details: 25° C., 25 mM Tris·HCl buffer pH=7.7, 14 Units/mL enzyme
Method: as §1, §2

aminopeptidase = assay: Stability in presence of aminopeptidase; format: in vitro ADME; details: 25° C., 20 mM Tris·HCl buffer pH=8, 10 Units/mL enzyme
Method: as §1, §2

[3] = Pharmacokinetic study in mice (IV bolus, LC-MS plasma levels); format: in vivo, CD-1 ICR mice; details: IV bolus 4.5 mg/kg
Method: CEND-1 or iRGD was given to fed CD-1 ICR mice by IV bolus at a nominal dose of 4.5 mg/kg in both groups, with four mice in each group, and an actually administered dose of 3.87 mg/kg for CEND-1 and 4.33 mg for iRGD. CEND-1 and iRGD were formulated in saline at a concentration of 0.9 mg/ml. Liquid chromatography-mass spectroscopy (LC-MS) was used to determine plasma levels of CEND-1 and iRGD in mice at different time points. Pharmacokinetic parameters were then calculated.

[4] = Phase I trial (CEND-001): CEND-1 pharmacokinetics; format: in vivo, human; details: patients
Method: (§3) The open-label, dose escalation, multicenter (3 active sites in Australia) trial involved a run-in phase with ascending doses of CEND-1 monotherapy (1-7 days), followed by the combination of CEND-1 with nab-paclitaxel (125 mg/m^2) and gemcitabine (1000 mg/m^2) on days 1, 8, 15 of a 21-day treatment cycle. Patients will first receive the intravenous infusion of nabpaclitaxel (125 mg/m^2 over 30 minutes (±3 minutes)). CEND-1 is given intravenously at the applicable dose level as a slow IV push over 1 minute (±30 seconds) immediately following completion of the post-nabpaclitaxel saline flush. The intravenous infusion of gemcitabine (1000 mg/m2 over 30 minutes (±3 minutes)) will be started as soon as possible, but at the latest within 10 minutes of CEND-1 administration.
In the CEND1-001 trial, as set forth above, CEND-1 was given initially at escalating doses from 0.2 mg/kg to 3.2 mg/kg during a run-in period of 1 to 7 days, during which PK and safety of the single agent were assessed.

[5] = Phase I trial (CEND-001): safety; format: in vivo, human
Method: as §3
During the CEND-1 run-in during dose escalation, the following definition of DLT was used:
A DLT in the run-in period was defined as: • Grade 4 neutropenia lasting ≥5 days or Grade 3 or 4 neutropenia with fever and/or infection • Grade 4 thrombocytopenia (or Grade 3 with bleeding) • Grade 3 or 4 treatment-related non-hematological toxicity (Grade 3 nausea, vomiting or diarrhea that last >72 hours despite maximal treatment constitutes a DLT, insufficient treatment will not constitute an exception to the DLT criteria, as this would constitute inadequate conduct of the study) • Dosing delay greater than 2 weeks due to treatment-emergent AEs or related severe laboratory abnormalities.
During the combination portion of the study, the following definition of dose-limiting toxicity was used: • Any side effect that is more severe, longer in duration or more frequent than side effects expected from the nab-paclitaxel and gemcitabine package insert. • Any side effect that is not included in the nab-paclitaxel and gemcitabine package insert that meets the DLT definition of the monotherapy above.

[6] = with nab-paclitaxel and gemcitabine, CTCAE version 5

Q: With “Ac-Cys-Arg-Gly-Asp-Lys-Gly-Pro-Asp-Cys-NH2 (Cys & Cys Bridge) [CEND-1]” as the substance, how does the “Degradation Rate” value [1] read?
A: The value was 1.1 %/Day.

Q: And the “Ratio Deg Rate iRGD/CEND-1” value [1]?
A: Its value is 3.

Q: And the “Degradation Rate” value [2]?
A: Its value is 2.5 %/Day.

Q: What about the “Ratio Deg Rate iRGD/CEND-1” value [2] of the same substance?
A: The value was 1.6.

Q: And the “Degradation by carboxypeptidase Y” value (carboxypeptidase Y)?
A: The value was “neither degraded”.

Q: What about the “Degradation by carboxypeptidase B” value (carboxypeptidase B) of the same substance?
A: The value was “neither degraded”.

Q: And the Degradation by aminopeptidase (aminopeptidase)?
A: The Degradation by aminopeptidase was “neither degraded”.

Q: What about the “Increased half-life compared to iRGD” value [3] of the same substance?
A: The value was 46%.

Q: What about the “Increase of mean plasma concentration of CEND-1 over iRGD” value ([3]; 1 hour after administration) of the same substance?
A: The value was 2.56 fold.

Q: What about the C0 ([3]; mean) of the same substance?
A: The C0 was 11908 ng/mL.

Q: What about the T1/2 ([3]; mean) of the same substance?
A: Its T1/2 is 14.6 min.

Q: And the Tlast ([3]; mean)?
A: The Tlast was 1.50 h.

Q: What about the “Mean Cmax plasma concentration” value ([3]; time 0.05 h) of the same substance?
A: The value was 9561 ng/mL.

Q: And the “Mean Cmax plasma concentration” value ([3]; time 0.167 h)?
A: Its value is 5756 ng/mL.

Q: What about the “Mean Cmax plasma concentration” value ([3]; time 0.5 h) of the same substance?
A: The value was 1917 ng/mL.

Q: And the “Mean Cmax plasma concentration” value ([3]; time 1.0 h)?
A: The value was 535 ng/mL.

Q: And the “Mean Cmax plasma concentration” value ([3]; time 1.5 h)?
A: Its value is 121 ng/mL.

Q: And the “Cmax dependence on dose” value ([4]; 0.2 to 3.2 mg/kg, no increase with repeat dosing)?
A: The value was “dose proportional increase”.

Q: What about the “Median Tmax” value ([4]; IV push, all days of PK sampling (minimum 0.03, maximum 0.55)) of the same substance?
A: Its value is 4.02 min.

Q: What about the “Patient deaths reported during the study” value ([5]; 31 patients enrolled, 9 caused by progression of primary disease, 1 due to stroke) of the same substance?
A: The value was 10.

Q: And the Dose limiting toxicities ([5]; CEND-1 0.2-3.2 mg/kg with nab-paclitaxel and gemcitabine)?
A: The Dose limiting toxicities was “No dose limiting toxicities; also recorded: no DLTs”.

Q: And the “DLTs or grade 3 or 4 adverse events, single agent run-in” value ([5]; CEND-1 monotherapy, any dose level 0.2 to 3.2 mg/kg, run-in of 1 to 7 days)?
A: Its value is “no DLTs or grade 3 or 4 adverse events”.

Q: What about the “Drug related grade 3-4 adverse events: anemia” value ([5]; with nab-paclitaxel and gemcitabine, 5 patients, data cutoff 27 Apr. 2020) of the same substance?
A: The value was 17%.

Q: And the “Drug related grade 3-4 adverse events: neutropenia” value ([5]; with nab-paclitaxel and gemcitabine, 18 patients, data cutoff 27 Apr. 2020)?
A: The value was 62%.

Q: What about the “Frequency of grade 3-4 bone marrow toxicity: anaemia” value [5, 6] of the same substance?
A: The value was 24%.

Q: And the “Frequency of grade 3-4 bone marrow toxicity: leukopenia” value [5, 6]?
A: Its value is 14%.

Q: And the “Frequency of grade 3-4 bone marrow toxicity: neutropenia” value [5, 6]?
A: Its value is 55%.

Q: What about the “Frequency of grade 3-4 bone marrow toxicity: thrombocytopenia” value [5, 6] of the same substance?
A: Its value is 3%.

“Also recorded” adds a separate entry of the source.
